This is an account of results in patent US20220056123A1, “USE OF IL-1BETA BINDING ANTIBODIES” (NOVARTIS AG, priority 2018, published 2022).

The target of this assay is IL-1β (Homo sapiens, UniProt P01584). Kind of assay: In vitro potency (IC50) of IL-1β antibodies. It counts as biochemical.

As a reminder, the IC50 is the concentration needed to halve the response being measured. On to “gevokizumab: high-affinity, humanized monoclonal antibody of the IgG2 isotype to interleukin-1β”, for which the “in vitro potency compared to canakinumab” value was roughly 10 times higher. Also, the IC50 (in vitro potency) lay in the range of 2 to 5 µM.
